Reference: patent US20180306789A1 (published 2018)

T1: NYESO1-001 (peptide code; control peptide) peptide on HLA-A*02:01 (human)
T1 peptide: SLLMWITQV

B1: R52P2G11 (TCR, V domains shown)
Valpha: KNQVEQSPQSLIILEGKNCTLQCNYTVSPFSNLRWYKQDTGRGPVSLTIMTFSENTKSNGRYTATLDADTKQSSLHITASQLSDSASYICVVSAYGKLQFGAGTQVVVTP
Vbeta: DAGVIQSPRHEVTEMGQEVTLRCKPISGHNSLFWYRQTMMRGLELLIYFNNNVPIDDSGMPEDRFSAKMPNASFSTLKIQPSEPRDSAVYFCASSLGSPDGNQPQHFGDGTRLSIL
B2: R53P2A9 (TCR, V domains shown)
Valpha: AQTVTQSQPEMSVQEAETVTLSCTYDTSESDYYLFWYKQPPSRQMILVIRQEAYKQQNATENRFSVNFQKAAKSFSLKISDSQLGDAAMYFCAYNSYAGGTSYGKLTFGQGTILTVHP
Vbeta: DAGVTQSPTHLIKTRGQQVTLRCSPISGHKSVSWYQQVLGQGPQFIFQYYEKEERGRGNFPDRFSARQFPNYSSELNVNALLLGDSALYLCASSLDGTSEQYFGPGTRLTVT

Biological target: T1, NYESO1-001 (peptide code; control …)
Assay: multimer staining

Binder	binding result
B1	no recognition
B2	no recognition
